Results taken from US20030144346A1, “Methods and compositions for regulation of 5-alpha reductase activity” (priority 1997, published 2003).

Assays:
[1] = target: T1, type 2 human 5α-reductase (HRED2) (Homo sapiens, UniProt P31213); test: Cell free assay of 5α-reductase, microsomes of rat 1A cells expressing type 2 isoenzyme (HRED2); assay type: biochemical; parameters: expressed in transfected cells; host or cells: rat 1A cells infected with pMV7 retrovirus; microsomes;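 further: labeled testosterone and its product dihydrotestosterone measured in microsomal reaction extracts via thin layer chromatography plus radioanalytic scanning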
T1 sequence (P31213 1-254): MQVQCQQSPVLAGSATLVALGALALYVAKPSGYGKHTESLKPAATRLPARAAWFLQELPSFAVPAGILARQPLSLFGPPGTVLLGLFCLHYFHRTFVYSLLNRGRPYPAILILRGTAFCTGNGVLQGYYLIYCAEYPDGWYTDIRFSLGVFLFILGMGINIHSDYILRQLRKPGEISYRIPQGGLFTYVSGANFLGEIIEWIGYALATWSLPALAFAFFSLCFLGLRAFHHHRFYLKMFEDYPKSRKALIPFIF

[2] = target: T2, type 1 human 5α-reductase (HRED1) (Homo sapiens, UniProt P18405); test: Cell free assay of 5α-reductase, microsomes of rat 1A cells expressing type 1 isoenzyme (HRED1); assay type: biochemical; parameters: expressed in transfected cells; host or cells: rat 1A cells infected with pMV7 retrovirus; microsomes; settings: read-out: HRED1 % Inhibition @ 100 uM;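 further: microsomes from rat 1A cells expressing human type 1 5α-reductase, conversion of radiolabeled testosterone to dihydrotestosterone quantified by thin layer chromatography with radioanalytic scanning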
T2 sequence (P18405 1-259): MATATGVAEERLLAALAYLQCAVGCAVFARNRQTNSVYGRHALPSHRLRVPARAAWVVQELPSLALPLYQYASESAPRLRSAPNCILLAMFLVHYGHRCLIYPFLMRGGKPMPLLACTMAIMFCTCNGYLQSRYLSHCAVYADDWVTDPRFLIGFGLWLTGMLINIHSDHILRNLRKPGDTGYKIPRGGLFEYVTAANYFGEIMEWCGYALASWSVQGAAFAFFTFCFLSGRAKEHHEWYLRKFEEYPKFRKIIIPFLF

[3] = target: T1, type 2 human 5α-reductase (HRED2); test: Whole cell assay of 5α-reductase, type 2 isoenzyme; assay type: cell-based; parameters: expressed in transfected cells; host or cells: rat 1A cells infected with pMV7 retrovirus; settings: Table 7;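 further: intact rat 1A cells genetically modified to carry human type 2 5α-reductase served as the enzyme source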

Row | inhibitory activity against type 2 isoenzyme, in words ([1]; cell-free assay) | inhibition at 100 µM ([1]; read-out: HRED2 % Inhibition @ 100 uM) | inhibition at 100 µM [2] | inhibition at 100 µM [3] | SMILES
1 | effective inhibitors |  |  |  | O=c1c(O)c(-c2ccc(O)cc2)oc2cc(O)cc(O)c12 [Kaempferol]
2 |  | 76% | 16% | 89% | O=c1c(-c2ccc(O)cc2)coc2cc(O)cc(O)c12 [Genistein]
